Test results as given in US20050175597A1 (priority 2002, published 2005).

System: B. subtilis (ATCC 6633)

CC[C@H]1OC(=O)[C@H](C)[C@@H](O[C@H]2C[C@@](C)(OC)[C@@H](O)[C@H](C)O2)[C@H](C)[C@@H](O[C@@H]2O[C@H](C)C[C@H](N(C)C)[C@H]2O)[C@](C)(O)C[C@@H](C)C(=O)[C@H](C)[C@@H](O)[C@]1(C)O [Erythromycin + H2O, Erythromycin]
reduction in erythromycin activity: 92%
